High-throughput results (PubChem BioAssay)
ClpP mod: qHTS Assay for Activators of ClpP; ATP-dependent Clp protease proteolytic subunit (Bacillus subtilis (strain 168)), P80244; purified B. subtilis ClpP, FRET peptide cleavage, 20 min; Potency, µM (highest dose often 57.5 µM), for the others: at the top dose activity change, negative = active; 340,000 compounds, 1.9% hits; active = well fitted falling curve with a large enough effect; inconclusive = small, poorly fitted or top-dose-only effect; inactive = no such curve, though single readings can be large or run the other way; note: potency is the fitted concentration of half-maximal effect; the source files actives as falling curves though it sought activators and does not explain the sign; nearly all actives have a fitted effect of over 65% in size
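Buffer: 100 mM Tris/HCl pH8, 100 mM KCl, 0.05% low protease BSA, 2.5% glycerol, 0.01% Tween-20. ClpP 10 microg/mL final; 20 min RT; delta FRET normalized to ADEP and DMSO controls.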
miR-21 reporter: miR-21 reporter, rising signal. 340,000 tested, under 10 active. Potency, µM (highest dose often 38.3 µM), for the others: at the highest dose reporter change, positive = more light. HeLa miR-21 FLuc reporter, luciferase, 48 h. AID 2288; active = well fitted rising curve with a large enough effect; inconclusive = small, poorly fitted or top-dose-only effect; inactive = no such curve, though single readings can be large or run the other way;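 further: % of control where 0% means no effect; miR-21 action dims this reporter so a rising signal means less miR-21 action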
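HeLa cells stably expressing CMV-driven firefly luciferase with a downstream miR-21 binding sequence, endogenously expressing miR-21, were treated with titrations (up to about 40uM final) for 48 hours at 37 degree Celsius. Luciferase luminescence was read after lysis.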
Apoferritin bind: binds horse apoferritin like a general anesthetic; P02791; apoferritin/1-aminoanthracene competitive binding, fluorescence; Potency, µM (top dose mostly 77.5 µM), for inactives: at the top dose activity change, negative = displacement, hits mostly inhibitors; 350,000 compounds, 0.074% hits; AID 485281; note: potency is the fitted concentration of half-maximal effect; % is set by controls: 0 for no effect and ±100 for the full control effect; nearly all actives have a fitted effect of over 20% in size
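Read-out: endpoint 1-AMA fluorescence, excitation 380 nm and emission 535 nm, after compounds sit 10 min at room temperature with 10 uM horse-spleen apoferritin in 50% saturated 1-AMA/PBS. Values come from four-parameter Hill fits.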
TrxR1 inh: blocks rat thioredoxin reductase 1 | recombinant rTrxR1, NADPH fluorescence consumption, selenite substrate | 390,000 compounds, 1% hits | Potency, µM (titrated, usually from 114 µM), for inactives: at the highest dose activity change, negative = inhibition, most hits filed as inhibitors | O89049; note: potency is the fitted concentration of half-maximal effect; % is set by controls: 0 for no effect and ±100 for the full control effect; nearly all actives have a fitted effect of over 65% in size
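Rat TrxR1 (90 nM in the dispensed reagent) was pre-reduced with 400 uM NADPH for 5 min at room temperature, then incubated with compound for 15 min. After 400 uM selenite was added, NADPH fluorescence (Ex 340/Em 450 nm) was followed for 8 min.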
TrxR1 substrate: is turned over as a substrate by rat TrxR1 | O89049 | Potency, µM (doses to about 114 µM), for the others: top-dose activity change, negative = substrate turnover | 390,000 compounds, 0.01% hits | purified TrxR1 substrate turnover, NADPH consumption readout | AID 588456; note: potency is the fitted concentration of half-maximal effect; % is set by controls: 0 for no effect and ±100 for the full control effect; nearly all actives have a fitted effect of over 50% in size
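Rat TrxR1, dispensed at 90 nM, was prereduced with 400 uM NADPH (final) for 5 min at ~22 deg C, then incubated with compound 15 min before 400 uM selenite. A first-read NADPH fluorescence drop versus no-compound background flagged substrates.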
Active calls of the source: *; u = inconclusive; x = not tested or not shown; [ ] = dose if it differs, or a comment. Only some compounds are listed: those with a hit (about 2.5% of all), similar ones and a draw of the others. Unless noted, calls come from the whole dose curve; as a rule, active = well fitted curve in the direction sought with a large enough effect; inconclusive = small, poorly fitted or top-dose-only effect, or another doubt; inactive = no such curve, though single readings can be large; an effect the other way counts as inactive or inconclusive.

The chains behind the UniProt entries cited, without tags or fusion partners.
ATP-dependent Clp protease proteolytic subunit (Bacillus subtilis (strain 168)), P80244, UniProt P80244, whole entry, looked up: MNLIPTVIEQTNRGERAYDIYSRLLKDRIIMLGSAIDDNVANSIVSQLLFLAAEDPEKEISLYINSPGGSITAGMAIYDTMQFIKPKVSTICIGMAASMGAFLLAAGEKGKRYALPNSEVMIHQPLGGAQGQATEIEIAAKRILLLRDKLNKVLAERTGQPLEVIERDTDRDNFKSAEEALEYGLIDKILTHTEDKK

no. | SMILES | ClpP mod | miR-21 reporter | Apoferritin bind
1 | COC(=O)c1ccc(Cn2cnc3c(sc4nc(N5CCOCC5)c5c(c43)CCCC5)c2=O)o1 | 28µM* | -20% | -1%
2 | CCOC(=O)c1sc2nc(N3CCCC3)c3c(c2c1N)CC(C)(C)OC3 | 32µM* | -10% | -16%
3 | CCOC(=O)c1sc2nc(C(C)C)c3c(c2c1N)CC(C)(C)OC3 | u | -4% | 25%
4 | COc1cc(/C=C2/C=Cc3ccccc32)ccc1N(C)C | 3% | x | x
5 | Nc1c(C(=O)NCc2ccco2)sc2nc(N3CCOCC3)c3c(c12)CCCC3 | u | -25% | 39%
6 | CCOC(=O)c1oc2nc(C)c3c(c2c1N)CC(C)(C)OC3 | 10µM* | -7% | 23%
7 | CCN(CC)C(=O)c1sc2nc(N3CCOCC3)c3c(c2c1N)CCCC3 | 25µM* | -6% | 5%
8 | CC1CCN(S(=O)(=O)c2ccc3c(ccc(=O)n3CC(=O)NCc3ccc(Cl)cc3)c2)CC1 | -8% | -2% | -9%

no. | TrxR1 inh | TrxR1 substrate
1 | u | 11%
2 | 13% | 28%
3 | 55% | 556%
4 | u | -10%
5 | -15% | 104%
6 | 42% | 194%
7 | -22% | 53%
8 | 13%[57.1 µM] | -3%[57.1 µM]

Reprinted at random: 4 records from the list.
no. | SMILES | ClpP mod | miR-21 reporter | Apoferritin bind
2 | CCOC(=O)c1sc2nc(N3CCCC3)c3c(c2c1N)CC(C)(C)OC3 | 32µM* | -10% | -16%
5 | Nc1c(C(=O)NCc2ccco2)sc2nc(N3CCOCC3)c3c(c12)CCCC3 | u | -25% | 39%
8 | CC1CCN(S(=O)(=O)c2ccc3c(ccc(=O)n3CC(=O)NCc3ccc(Cl)cc3)c2)CC1 | -8% | -2% | -9%
1 | COC(=O)c1ccc(Cn2cnc3c(sc4nc(N5CCOCC5)c5c(c43)CCCC5)c2=O)o1 | 28µM* | -20% | -1%

no. | TrxR1 inh | TrxR1 substrate
2 | 13% | 28%
5 | -15% | 104%
8 | 13%[57.1 µM] | -3%[57.1 µM]
1 | u | 11%

New compounds follow
no. | SMILES | ClpP mod | miR-21 reporter | Apoferritin bind
9 | O=C(Cn1cnc2ccccc2c1=O)OCC(=O)c1ccc2c(c1)OCCO2 | 3% | -12% | 16µM*
10 | O=C(NCc1ccccc1Cl)C(=O)NCC(c1cccs1)S(=O)(=O)c1ccccc1 (configuration not stated) | -1% | 17% | -9%
11 | Cc1ccccc1CSc1nc2n(n1)C(c1cccs1)C1=C(CCCC1=O)N2 (configuration not stated) | 22µM* | 11% | u
12 | CN1C(=O)c2ccccc2N(C)C1c1cccs1 (configuration not stated) | 20µM* | -6% | 15%
13 | COc1cc(CNCCNC(=O)c2nonc2N)ccc1OCc1ccc(Cl)cc1 | 0% | -7% | 13µM*
14 | COc1ccc(-n2nnnc2C2CCN(S(=O)(=O)c3ccc(C)cc3)CC2)cc1 | -2% | 8% | 152%
15 | Nc1ccc(O)cc1C(=O)OCC(=O)C12CC3CC(CC(C3)C1)C2 | 22µM* | -23% | 32µM*
16 | Cc1ccc(NC(=O)CSc2nc(-c3ccco3)nc3cc(=O)[nH]n23)cc1C | 3% | -5% | -22%

no. | TrxR1 inh | TrxR1 substrate
9 | 2% | -1%
10 | 7%[57.1 µM] | 1%[57.1 µM]
11 | 13%[57.1 µM] | 8%[57.1 µM]
12 | 15% | 46%[57.1 µM]
13 | 8%[57.1 µM] | 3%[57.1 µM]
14 | 26% | -2%
15 | 4%[57.1 µM] | 15%[57.1 µM]
16 | 11%[57.1 µM] | 3%[57.1 µM]

More structures follow.
no. | SMILES | ClpP mod | miR-21 reporter | Apoferritin bind
17 | CN(C)S(=O)(=O)N1CCC(Oc2cccc(C(=O)NCCC3=CCCCC3)c2)CC1 | 25µM* | 25% | -9%
18 | CN(C)S(=O)(=O)N1CCC(Oc2cccc(C(=O)NC3CCCCC3)c2)CC1 | -1% | 24% | -1%
19 | CCCn1c(SCc2nc(-c3ccccc3C)no2)nnc1-c1ccc(Cl)cc1 | -2% | 0% | 3%
20 | COc1ccc(S(=O)(=O)c2c(Nc3c(C)cccc3C)sc(C(=O)c3ccc(F)cc3)c2N)cc1 | -23% | 2% | 36%
21 | COC(=O)C1=C(C)NC2=C(C(=O)CCC2)C1c1cn(Cc2ccc(Br)cc2)nc1-c1ccccc1 (configuration not stated) | u | 8% | 226%
22 | COC(=O)C1=C(C)NC2=C(C(=O)CC(C)(C)C2)C1c1cn(Cc2ccc(Br)cc2)nc1-c1ccccc1 (configuration not stated) | 32µM* | 16% | 464%
23 | CC(=O)c1ccc(N2CCN(C(=O)c3cn(C)c(=O)c4c3c3ccccc3n4C)CC2)cc1 | -17% | 1% | -12%
24 | Brc1ccc2c(ccc[n+]2CCc2ccccc2)c1 | -1% | x | x

no. | TrxR1 inh | TrxR1 substrate
17 | 27% | 4%
18 | 16% | -3%
19 | 30% | 6%
20 | -1%[57.1 µM] | -9%[57.1 µM]
21 | 42% | 114%
22 | 28% | 87%
23 | 1% | -4%
24 | 22% | 3%

Next compounds
no. | SMILES | ClpP mod | miR-21 reporter | Apoferritin bind
25 | Cc1cc(C(=O)N/N=C/c2ccc(N(C)C)o2)cs1 | -1% | -5% | -15%
26 | CN(C)c1ccc(/C=N/NC(=O)C(O)(c2ccccc2)c2ccccc2)o1 | -6% | -4% | -16%
27 | CCCCCc1ccc(S(=O)(=O)Nc2cc(C)ccn2)cc1 | 0% | 3% | -4%
28 | Cc1ccnc(NS(=O)(=O)c2ccc(Oc3ccccc3)cc2)c1 | 28µM* | -1% | u
29 | Oc1c(C(c2ccc(Cl)cc2Cl)N2CCN(Cc3ccccc3)CC2)sc2nc(-c3ccco3)nn12 (configuration not stated) | 0% | 2% | u
30 | CCCCN(C)C(=O)c1ccc2c(c1)N(Cc1cccc(F)c1)C(=O)c1ccccc1S2 | 1% | -2% | -17%
31 | CN1C2CCC1CC(NS(=O)(=O)c1cc(Cl)c(Cl)cc1Cl)C2 (configuration not stated) | 35µM* | -6% | -2%
32 | CCOC(=O)c1ccc(CN(Cc2ccc(F)cc2)S(=O)(=O)c2cc(C(=O)Nc3cccc(C(F)(F)F)c3)ccc2F)cc1 | u | 19% | 2%

no. | TrxR1 inh | TrxR1 substrate
25 | 14µM* | 2%
26 | 8.9µM* | 0%
27 | 8%[2.29 µM] | 5%[57.1 µM]
28 | 39% | 26%
29 | 16%[57.1 µM] | 4%[57.1 µM]
30 | 4%[57.1 µM] | -6%[57.1 µM]
31 | -1% | -3%
32 | 17%[57.1 µM] | -2%[57.1 µM]

More records follow:
no. | SMILES | ClpP mod | miR-21 reporter | Apoferritin bind
33 | Cc1nc2cc(NC(=O)N3CCN(c4ccccn4)CC3)ccc2o1 | 25µM* | -11% | -7%
34 | S=C(Nc1ccc(N2CCOCC2)cc1)Nc1ccc2nc(-c3ccco3)c(-c3ccco3)nc2c1 | -1% | -19% | 152%
35 | O=C1CC(C(=O)N2CCN(c3ccccn3)CC2)CN1Cc1ccccc1Cl (configuration not stated) | 32µM* | x | x
36 | O=C(Nc1ccc(N2CCOCC2)cc1)c1ccc2nc(-c3ccco3)c(-c3ccco3)nc2c1 | 1% | 0% | -4%
37 | O=C(c1ccc2nc(-c3ccco3)c(-c3ccco3)nc2c1)N1CCN(c2ncccn2)CC1 | -3% | 10% | 107%
38 | CCOC(=O)N1CCN(C(=O)Nc2ccc3oc(C)nc3c2)CC1 | -2% | -11% | -1%
39 | Cc1ccc(N2CC(C(=O)N3CCN(c4ccccn4)CC3)CC2=O)cc1 (configuration not stated) | x | x | x
40 | Cc1c(-c2ccccc2)n(-c2ccc(Cl)cc2)c2nc3c(c(=O)n(C)c(=O)n3C)n12 | 0% | -5% | 0%

no. | TrxR1 inh | TrxR1 substrate
33 | 28% | 23%
34 | 2.5µM* | -9%
35 | 11% | 15%
36 | -20% | 1%[57.1 µM]
37 | 13µM* | 5%
38 | u | 0%
39 | 11% | 16%
40 | 17%[57.1 µM] | 4%[57.1 µM]

(list continues)
no. | SMILES | ClpP mod | miR-21 reporter | Apoferritin bind
41 | CCc1cccc(NC(=O)C(c2ccccc2)N2Cc3ccccc3C2=O)c1 (configuration not stated) | -2% | -2% | 1%
42 | CCOC(=O)c1cc(S(=O)(=O)Nc2ccccc2OCC)[nH]n1 | 1% | 1% | -4%
43 | CCOC(=O)c1ccc(NC(=O)N2CCN(CCc3ccccc3)CC2)cc1 | -3% | -22% | -6%
44 | CCOC(=O)C1CCN(C(=O)Nc2ccc3nc(C)c(C)nc3c2)CC1 | 13µM* | -4% | 113%

no. | TrxR1 inh | TrxR1 substrate
41 | 8% | -7%
42 | 19%[57.1 µM] | -2%[57.1 µM]
43 | 15% | 10%[57.1 µM]
44 | -26% | 173%
